{"source": "patent US20250051703A1", "about": "“EGG OPENER, EX OVO TUMOR XENOGRAFT METHOD, THERAPEUTIC COMPOUND ASSAY, THERAPEUTIC COMPOUND TESTING METHOD VIA EX OVO QUAIL EGG XENOGRAFT ASSAY” (CHILDREN'S CANCER THERAPY DEVELOPMENT INSTITUTE, priority 2021, published 2025)", "system": "BT474 human breast cancer cell line", "assay": "BT474 xenograft CAM assay, radiance", "type": "in vivo", "conditions": "FIGS. 18C and 18D", "data": [{"substance": "trastuzumab", "values": [{"measurement": "dose-response in BT474 xenograft CAM assay", "value": "dose-response relationship"}]}]}
